The values that follow come from publication PMC10466050, “A comparative study of human and zebrafish glucocorticoid receptor activities of natural and pharmaceutical steroids” (Frontiers in Endocrinology, 2023).

Protein sequences, listed by entry. Tags and fused reporters are not part of them.
UniProt Q1XHK0, entry or part of it: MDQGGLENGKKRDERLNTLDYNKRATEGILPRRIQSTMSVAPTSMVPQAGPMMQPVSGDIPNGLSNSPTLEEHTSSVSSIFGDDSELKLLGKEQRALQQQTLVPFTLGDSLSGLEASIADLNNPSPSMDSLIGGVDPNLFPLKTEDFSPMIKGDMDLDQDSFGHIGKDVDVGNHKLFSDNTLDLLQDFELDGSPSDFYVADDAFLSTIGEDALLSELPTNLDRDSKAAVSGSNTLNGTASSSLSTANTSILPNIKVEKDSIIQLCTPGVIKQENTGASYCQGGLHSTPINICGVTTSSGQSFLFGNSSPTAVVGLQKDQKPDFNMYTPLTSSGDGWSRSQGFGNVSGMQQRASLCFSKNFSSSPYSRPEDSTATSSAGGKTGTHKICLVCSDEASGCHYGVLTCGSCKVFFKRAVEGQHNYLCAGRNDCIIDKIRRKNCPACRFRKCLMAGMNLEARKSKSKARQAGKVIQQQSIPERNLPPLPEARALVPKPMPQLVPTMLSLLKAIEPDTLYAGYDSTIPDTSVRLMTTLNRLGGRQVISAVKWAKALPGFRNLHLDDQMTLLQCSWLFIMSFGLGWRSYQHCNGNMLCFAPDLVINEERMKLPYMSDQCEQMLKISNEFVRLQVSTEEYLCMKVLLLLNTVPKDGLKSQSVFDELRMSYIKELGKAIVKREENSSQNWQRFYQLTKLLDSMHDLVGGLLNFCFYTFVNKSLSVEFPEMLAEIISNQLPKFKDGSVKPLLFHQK

Test [1] addresses zfGR (Danio rerio, UniProt Q1XHK0). Kind of test: Antagonistic activity assessment in presence of 3 nM dexamethasone, UMLN-zfGR cells. Format: cell-based, zebrafish. To be noted: IC50, UMLN-zfGR cells, antagonistic activity, with 3 nM dexamethasone.
Test [2] deals with T1, hGR (Homo sapiens, UniProt P04150).
T1 sequence (P04150 1-777): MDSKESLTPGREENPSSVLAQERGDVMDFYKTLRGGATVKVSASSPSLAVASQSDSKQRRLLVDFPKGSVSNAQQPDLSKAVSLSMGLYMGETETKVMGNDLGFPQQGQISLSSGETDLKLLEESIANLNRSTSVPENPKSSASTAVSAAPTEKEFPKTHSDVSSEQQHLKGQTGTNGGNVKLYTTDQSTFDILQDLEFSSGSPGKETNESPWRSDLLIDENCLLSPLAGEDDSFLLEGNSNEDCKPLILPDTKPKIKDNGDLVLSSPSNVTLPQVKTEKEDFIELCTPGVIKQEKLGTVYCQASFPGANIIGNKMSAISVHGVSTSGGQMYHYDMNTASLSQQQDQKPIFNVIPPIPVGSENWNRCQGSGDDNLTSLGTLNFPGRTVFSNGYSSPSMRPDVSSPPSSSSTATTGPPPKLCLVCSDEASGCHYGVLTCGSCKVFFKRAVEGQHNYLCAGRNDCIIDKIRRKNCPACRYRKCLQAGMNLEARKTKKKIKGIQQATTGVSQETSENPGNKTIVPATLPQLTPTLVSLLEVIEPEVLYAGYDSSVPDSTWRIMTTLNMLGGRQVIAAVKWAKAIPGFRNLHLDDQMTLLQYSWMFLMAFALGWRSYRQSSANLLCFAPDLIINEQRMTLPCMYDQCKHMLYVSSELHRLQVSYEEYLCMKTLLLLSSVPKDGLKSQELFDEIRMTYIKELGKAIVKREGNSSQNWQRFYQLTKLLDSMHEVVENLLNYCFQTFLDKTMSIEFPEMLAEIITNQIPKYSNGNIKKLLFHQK
The following applies: HMLN-hGR; with 3 nM dexamethasone; % of maximal luciferase activity induced by 100 nM dexamethasone; at 10^-5M.

Regarding `C[C@]12CCC(=O)C=C1CC[C@@H]1[C@@H]2[C@@H](O)C[C@]2(C=O)[C@@H](C(=O)CO)CC[C@@H]12` [aldosterone], the IC50 (as a rule, the concentration needed to halve the response being measured) in test [1] was 14 µM.

As to `CC(=O)S[C@@H]1CC2=CC(=O)CC[C@]2(C)[C@H]2CC[C@@]3(C)[C@@H](CC[C@@]34CCC(=O)O4)[C@H]12` [spironolactone], the “% min act (minimal activity)” value in test [2] is 11 ± 4%.
